From patent publication US20090036416A1, “Novel CXCR4 Antagonist and Use Thereof” (Kyoto University, priority 2005, published 2009)
pIC50: −log10 of the molar value.

Amino acid sequences for entries named in this document (tags omitted).
UniProt P61073, whole entry: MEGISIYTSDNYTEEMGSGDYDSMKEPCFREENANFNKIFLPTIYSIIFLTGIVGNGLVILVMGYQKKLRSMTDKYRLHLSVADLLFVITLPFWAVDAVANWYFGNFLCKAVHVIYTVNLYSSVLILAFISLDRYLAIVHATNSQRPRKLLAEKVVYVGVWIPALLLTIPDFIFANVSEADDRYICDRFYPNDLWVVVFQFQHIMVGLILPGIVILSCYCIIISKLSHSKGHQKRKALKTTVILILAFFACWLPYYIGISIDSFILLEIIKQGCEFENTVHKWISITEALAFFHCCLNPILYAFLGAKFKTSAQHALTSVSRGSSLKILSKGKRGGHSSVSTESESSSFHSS

How the values were obtained:
[1] = biological target: T1, CXCR4 (Homo sapiens, UniProt P61073); assay: CXCR4 antagonistic activity: inhibition of Ca2+ movement induced by SDF-1a in CXCR4 transfected CHO cells (Fura-2); format: cell-based; settings: inhibition of Ca2+ movement induced by SDF-1a (30 nM) via CXCR4
Procedure: Various aromatic compounds each having a dipicolylamine-zinc complex were prepared, and their CXCR4 antagonistic effects were examined using the following method.
A CXCR4 transfected Chinese hamster ovary(CHO) cells (3×10^4 cell/100 μL/well) were plated in each well of a flat-bottomed micro-titer tray. The samples were incubated in a CO2 incubator at 37° C., and the cells were loaded in Ham F-12 buffer(80 μL/well) for an hour at 37° C., together with 5 μM Fura-2AM (Dojindo, Kumatomo, Japan), 2.5 mM Probenecid (Sigma) and 20 mM HEPES(pH7.4).
Thereafter, the cells were washed twice with Hank's balanced salt solution (100 μL×2), and placed in a spectrofluorimeter (96 well Fluorescence Drug Screening System, Hamamatsu Photonics K.K. Japan). 30 seconds after the measurement started, the cells were incubated in Hank's balanced salt solution with plural test compounds of different concentrations. After 3 minutes, recombinant SDF-1a (PreproTech, 30 nM/[…]/well) was added.
Changes of the CXCR4 transfect CHO cell system loaded with Fura2-A[Ca^2+], were recorded in real time with a modification method of Fura-2. The CXCR4 antagonistic effect was measured based on the inhibition of Ca^2+ movement induced by the stimulation of SDF-1a via CXCR4 (IC50).

[2] = biological target: T1, CXCR4; assay: CXCR4 binding activity: inhibition of 125I-SDF-1a bonding to CXCR4 transfected CHO cells; settings: inhibition of 125I-SDF-1a (0.1 nM) bonding, 1 h at 0° C.
Procedure: A CXCR4 transfected CHO cells suspended in Ham's F-12 buffer (0.5% bovine serum albumin, 20 mM HEPES buffer) were placed in a silicon-coated test tube (5×10^5 cells/120 μL/well). Cold SDF-1 a (Final concentration 0.1 μM, 15 μL/well) and a test object having one of various concentrations (15 μL/well) was added to the test tube. Thereafter, ^125I-SDF-1a (PerkinElmer, final concentration=0.1 nM, 15 μL/well) was added. The sample was incubated for an hour at 0° C., mixed with oil (dibutyl phthalate: olive oil=4:1(v/v), 500 μL/well), then centrifuged for 2 minutes at 14,000 rpm. After removing the water layer and the organic layer, the bottom part was separated from the test tube and was placed in a radioimmunoassay counting tube. Thereafter, count per minute (CPM) was measured with a γ-counter. The inhibition rate of the test compound with respect to ^125I-SDF-1 a bonding was found by the following equation. IC50 denotes a concentration of a test object whose inhibition rate is 50%.
Inhibition rate (%)=(Et−Ea)/(Et−Ec)×100

Substance: bis(2,2′-dipicolylamino)-p-xylene/zinc complex [Example Compound 1]
- pIC50 [1]: 7.00
- pIC50 [2]: 7.33
